Reference: EP4549424A1, “NEW LITHIUM EXTRACTING AGENT AND LIQUID ORGANIC MIXTURE THEREOF, AND METHOD FOR EXTRACTING LITHIUM BY MEANS OF EXTRACTION” (Beijing Salt Lake Technology Development Company Limited, priority 2022, dated 2024)

Experiments:
[1] = Liquid-liquid extraction from aqueous lithium-containing solution, ICP detection: sodium; settings: feed B1 (cLi 0.807, cNa 56.12 g/L, pH 11.48); organic phase and phase ratio per example;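 further: sodium measured by inductively coupled plasma optical emission spectrometry in the diluted aqueous phase left after shaking with the organic phase and phase separation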
[2] = Liquid-liquid extraction from aqueous lithium-containing solution, ICP detection: lithium; settings: feed B1 (cLi 0.807, cNa 56.12 g/L, pH 11.48); organic phase and phase ratio per example;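 further: component concentrations in the aqueous phase were measured by inductively coupled plasma optical emission spectrometry after shaking and phase separation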

For “2-hydroxy-2-phenylacetophenone [Example 41]”, the “cNa, remaining aqueous phase R1” value [1] was 49.50 g/L and the “cLi, remaining aqueous phase R1” value [2] was 0.248 g/L.
